Results as given in US20070025991A1, “Use of antagonists of ghrelin or ghrelin receptor to treat intestinal inflammation” (priority 2003, published 2007).

How the values were obtained:
[1] = TNBS-induced colitis, body weight and macroscopic damage; details: TNBS 100 mg/kg rectally in 40% ethanol, vs buffer-injected and normal mice
[2] = tested on: ghrelin mRNA; assay: TNBS-induced colitis, colonic ghrelin mRNA by quantitative real time PCR; details: colon, one day after TNBS infusion (100 mg/kg, rectal)

Q: Which “body weight, diarrhea, macroscopic damage” value [1] does the source give for `O=[N+]([O-])c1cc([N+](=O)[O-])c(S(=O)(=O)O)c([N+](=O)[O-])c1` here?
A: typical weight loss, diarrhea and severe ulceration

Q: And the “levels of ghrelin mRNA increased as compared to the control” value [2]?
A: 2.4 fold
